Results: PMC6480038, “In Vitro and In Silico Acetylcholinesterase Inhibitory Activity of Thalictricavine and Canadine and Their Predicted Penetration across the Blood-Brain Barrier” (Molecules, 2019)

Conditions: pig, pH 7.4

CNCCCN1c2ccccc2CCc2ccccc21 [desipramine, reference compound]
PAMPA-BBB (Pe) experimental permeability: 12.7 10-6 cm.s-1
